# Test results: patent publication US20240139170A1, “TOPICAL FORMULATIONS OF A JAK 1/3 INHIBITOR AND METHODS OF USE THEREOF FOR TREATMENT OF ATOPIC DERMATITIS AND OTHER SKIN CONDITIONS” (ACLARIS THERAPEUTICS, INC., priority 2021, published 2024)
# Settings: in vivo
smiles,measurement,value
"CCOC(=O)c1cnc2[nH]ccc2c1N[C@@H]1CCCN(C(=O)CC#N)C1 [Compound I, ethyl (R)-4-((1-(2-cyanoacetyl)piperidin-3-yl)amino)-1H-pyrrolo[2,3-b]pyridine-5-carboxylate]",Withdrawal from the study due to an adverse event,no patients in the Compound I group withdrew from the study due to an adverse event
